Assay results published in PubChem BioAssay AID2058 (Sanford-Burnham Center for Chemical Genomics, 2009).
This is a selection; strong and weak results do not stand in their true shares. Potency and affinity values are given separately. Activity calls are given as the source filed them.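 How the source made its calls: active means inhibition of at least 50% with at least 30 cells and total cytoplasm GFP at most 10,000,000; inconclusive means under 30 cells or total GFP of 10,000,000 plus; inactive means the rest.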

The chains behind the UniProt entries cited, without tags or fusion partners.
UniProt Q9HC97, whole entry: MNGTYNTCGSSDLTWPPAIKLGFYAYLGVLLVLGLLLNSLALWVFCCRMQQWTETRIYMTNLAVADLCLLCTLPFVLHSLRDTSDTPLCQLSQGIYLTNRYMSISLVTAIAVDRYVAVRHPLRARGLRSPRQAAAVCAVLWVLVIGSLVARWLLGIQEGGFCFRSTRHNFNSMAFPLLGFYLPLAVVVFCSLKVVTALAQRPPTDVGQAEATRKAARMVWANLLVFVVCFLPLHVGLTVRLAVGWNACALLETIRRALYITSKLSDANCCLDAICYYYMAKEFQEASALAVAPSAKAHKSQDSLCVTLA

Molecular target: G-protein coupled receptor 35 (Homo sapiens) (UniProt Q9HC97)
Assay: inhibition of zaprinast-stimulated GPR35 beta-arrestin translocation – imaging, U2OS, beta-arrestin-GFP, zaprinast agonist, primary screen (AID 2058)
Conditions: zaprinast antagonism, at 10 µM, hits give high values

Row | SMILES | inhibition
1 | Cc1c2c(nc3ccccc13)SC(C(Cl)Cl)C2 (stereo unspecified) | inactive: 11.1%
